The chains behind the UniProt entries cited, without tags or fusion partners. Residues count along the entry.
UniProt P23945, 18-695: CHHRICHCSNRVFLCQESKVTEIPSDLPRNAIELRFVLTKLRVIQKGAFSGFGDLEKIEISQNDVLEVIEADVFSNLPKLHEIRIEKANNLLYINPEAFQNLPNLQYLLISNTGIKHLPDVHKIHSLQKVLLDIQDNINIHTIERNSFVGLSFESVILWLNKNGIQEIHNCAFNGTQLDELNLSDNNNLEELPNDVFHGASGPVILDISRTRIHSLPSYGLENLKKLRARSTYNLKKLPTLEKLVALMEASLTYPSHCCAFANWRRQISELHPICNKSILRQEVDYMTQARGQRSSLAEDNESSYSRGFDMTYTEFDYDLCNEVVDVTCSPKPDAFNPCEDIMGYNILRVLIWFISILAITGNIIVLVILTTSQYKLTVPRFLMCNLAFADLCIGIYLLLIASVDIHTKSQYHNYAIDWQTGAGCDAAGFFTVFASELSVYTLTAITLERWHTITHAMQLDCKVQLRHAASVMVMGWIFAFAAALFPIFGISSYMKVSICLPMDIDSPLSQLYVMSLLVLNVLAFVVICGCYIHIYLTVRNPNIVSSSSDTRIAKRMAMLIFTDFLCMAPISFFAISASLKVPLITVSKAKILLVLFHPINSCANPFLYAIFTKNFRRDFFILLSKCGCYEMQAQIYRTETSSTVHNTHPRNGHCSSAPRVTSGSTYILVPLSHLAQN

According to patent US20030036181A1:

Biological target: human FSH receptor, stably expressed on CHO K1 cells (CHO FSH-R/CRE-luc cell line) (human) (UniProt P23945)
Assay: cell-based or functional assay

EC50 of the luciferase signal upon stimulation with FSH (CHO FSH-R/CRE-luc clone): 0.01 IU/ml
Substance: FSH (preparation used to stimulate the CHO FSH-R/CRE-luc clone) (from UniProt P01215 25-116; P01225 19-129) (ligand)
